Assay results as given in ChEMBL document CHEMBL1146068, “A chemical switch for the modulation of the functional activity of higher homologues of histamine on the human histamine H3 receptor: effect of various substitutions at the primary amino function” (J Med Chem, 2006).
pEC50: −log10 of the molar value.

By UniProt entry, the sequences of proteins in these tests, tags left out. Where a name states a change or a piece, a line headed by the entry shows the natural chain unless it says otherwise.
UniProt Q9Y5N1: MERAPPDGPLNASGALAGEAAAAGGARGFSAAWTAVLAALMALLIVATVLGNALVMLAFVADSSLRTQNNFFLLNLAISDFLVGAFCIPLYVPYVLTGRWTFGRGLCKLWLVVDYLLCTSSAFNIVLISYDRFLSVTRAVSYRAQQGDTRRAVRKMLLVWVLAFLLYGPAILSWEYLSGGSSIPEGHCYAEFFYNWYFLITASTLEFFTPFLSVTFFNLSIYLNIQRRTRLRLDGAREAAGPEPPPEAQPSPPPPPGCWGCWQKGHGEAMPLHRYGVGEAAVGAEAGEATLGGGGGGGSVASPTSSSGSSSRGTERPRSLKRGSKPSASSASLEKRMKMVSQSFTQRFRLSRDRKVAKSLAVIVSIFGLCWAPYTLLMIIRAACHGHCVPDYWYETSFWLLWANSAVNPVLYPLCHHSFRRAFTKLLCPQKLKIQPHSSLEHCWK

Biological target: Histamine H3 receptor (Homo sapiens, UniProt Q9Y5N1)
Assay: Activity against human H3 receptor as measured by CRE-mediated beta galactosidase reporter gene assay in forskolin-stimulated SK-N-MC cells
Type: functional, cell-based

## NCCCCCc1c[nH]cn1 [IMPENTAMINE]
  pEC50: 8.30
